SMILES	logP
Cc1nc([N+](=O)[O-])c([N+](=O)[O-])[nH]1	0.77
Cn1cc([N+](=O)[O-])nc1[N+](=O)[O-]	-0.17
Cn1cnc([N+](=O)[O-])c1[N+](=O)[O-]	0.41
O=[N+]([O-])c1cnc([N+](=O)[O-])[nH]1	0.2
O=[N+]([O-])c1nc[nH]c1[N+](=O)[O-]	0.65

From the OPERA property sets (Mansouri et al. 2018)
